SMILES strings stand for the structures. Only a part of the results on these compounds is given; other tests are left out.

The chains behind the UniProt entries cited, without tags or fusion partners.
UniProt P18031, whole entry: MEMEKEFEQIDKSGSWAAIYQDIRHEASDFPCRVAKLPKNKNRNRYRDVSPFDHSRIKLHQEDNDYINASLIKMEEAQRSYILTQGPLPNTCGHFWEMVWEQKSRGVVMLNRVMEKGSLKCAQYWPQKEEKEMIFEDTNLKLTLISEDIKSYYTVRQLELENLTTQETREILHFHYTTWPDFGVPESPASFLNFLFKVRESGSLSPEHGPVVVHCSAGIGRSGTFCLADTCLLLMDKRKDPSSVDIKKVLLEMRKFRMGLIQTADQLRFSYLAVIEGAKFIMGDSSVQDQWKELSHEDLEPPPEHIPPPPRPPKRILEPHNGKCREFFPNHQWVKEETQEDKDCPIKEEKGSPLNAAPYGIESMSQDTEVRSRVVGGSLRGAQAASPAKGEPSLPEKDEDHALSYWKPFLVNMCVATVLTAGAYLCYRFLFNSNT

As usually defined, the IC50 is the point on the concentration scale where inhibition reaches its midpoint.

The target of this test is human PTP-1B (PTP-1B-GST fusion protein) (Homo sapiens, UniProt P18031). Nature of the test: Cell-free PTP-1B phosphatase assay (malachite green, ppC SRC 60 phosphopeptide substrate). Particulars: read-out: IC50 avg. value (μM) Cell-free assay, ppC SRC 60 substrate, 15 min at room temperature.

On to `O=[N+]([O-])c1cc2[nH]c3cc([N+](=O)[O-])c([N+](=O)[O-])cc3c2cc1[N+](=O)[O-]`, for which the IC50 stood at 0.56 µM.

For the origin of these results see patent US20060070135A1, “Compositions and methods for inhibiting the enzymatic activity of PTP-1B” (priority 1998, published 2006).
